# Cyclic peptide permeability, from CycPeptMPDB

PAMPA is the parallel artificial membrane permeability assay, which has no cells and reads passive diffusion. Permeability is in 10^-6 cm/s, converted from the database's log10 values; higher is more permeable.

* CCCN1CC(=O)N(C)[C@@H](CC(C)C)C(=O)N(C)[C@H](CC(C)C)C(=O)N2CCC[C@H]2C(=O)N[C@H](CC(C)C)C(=O)N[C@@H](Cc2ccccc2)C1=O: PAMPA 19 × 10^-6 cm/s
* CC(C)C[C@H]1C(=O)N(Cc2ccccc2)CC(=O)N2CCC[C@H]2C(=O)N(Cc2ccccc2)CC(=O)N[C@@H](Cc2ccccc2)C(=O)N(C)[C@@H](C)C(=O)N1C: PAMPA 7.2 × 10^-6 cm/s
* CC(C)C[C@@H]1C(=O)N(C)[C@@H](CC(C)C)C(=O)N2CCC[C@@H]2C(=O)N(C)[C@@H](CC(C)C)C(=O)N[C@@H](Cc2ccccc2)C(=O)N2CCC[C@H]2C(=O)N[C@@H](C)C(=O)N1C: PAMPA 7.8 × 10^-6 cm/s
* CC(C)C[C@@H]1C(=O)N2CCC[C@@H]2C(=O)N(C)[C@@H](CC(C)C)C(=O)N[C@@H](Cc2ccccc2)C(=O)N2CCC[C@@H]2C(=O)N[C@@H](Cc2ccccc2)CC(=O)N[C@H](CC(C)C)C(=O)N1C: PAMPA 4.8 × 10^-6 cm/s
* CC(C)C[C@H]1NC(=O)[C@H](C)N(C)C(=O)[C@H]2CCCN2C(=O)[C@H](Cc2ccccc2)NC(=O)CN(Cc2ccccc2)C(=O)[C@@H]2CCCN2C(=O)[C@H](CC(C)C)N(C)C1=O: PAMPA 2.8 × 10^-6 cm/s
* CC(C)C[C@@H]1C(=O)N[C@@H](Cc2ccccc2)C(=O)N2CCC[C@@H]2C(=O)N(C)[C@@H](C)C(=O)N(C)[C@@H](CC(C)C)C(=O)N(C)[C@@H](CC(C)C)C(=O)N2CCC[C@H]2C(=O)N1C: PAMPA 6.5 × 10^-6 cm/s
* CC(C)C[C@H]1C(=O)N[C@@H](Cc2ccccc2)CC(=O)N2CCC[C@H]2C(=O)N(C)[C@@H](CC(C)C)C(=O)N[C@@H](Cc2ccccc2)C(=O)N2CCC[C@@H]2C(=O)N[C@@H](Cc2ccccc2)CC(=O)N1C: PAMPA 5.9 × 10^-6 cm/s
* CC(C)C[C@@H]1NC(=O)[C@H]2CCCN2C(=O)[C@@H](CC(C)C)N(C)C(=O)[C@@H](CC(C)C)N(C)C(=O)[C@H](C)NC(=O)[C@H]2CCCN2C(=O)[C@H](Cc2ccccc2)NC1=O: PAMPA 2.5 × 10^-6 cm/s
* CC(C)C[C@@H]1NC(=O)[C@H]2CCCN2C(=O)[C@H](CC(C)C)N(C)C(=O)[C@@H](CC(C)C)NC(=O)[C@@H](C)N(C)C(=O)[C@@H]2CCCN2C(=O)[C@H](Cc2ccccc2)NC1=O: PAMPA 0.5 × 10^-6 cm/s
* CC(C)C[C@@H]1NC(=O)[C@@H]2CCCN2C(=O)[C@@H](CC(C)C)N(C)C(=O)[C@H](CC(C)C)N(C)C(=O)[C@H](C)NC(=O)[C@@H]2CCCN2C(=O)[C@H](Cc2ccccc2)NC1=O: PAMPA 0.81 × 10^-6 cm/s
* CC(C)C[C@@H]1NC(=O)C[C@H](Cc2ccccc2)NC(=O)[C@H](Cc2ccccc2)NC(=O)[C@@H](CC(C)C)N(C)C(=O)[C@@H]2CCCN2C(=O)[C@@H](CC(C)C)NC1=O: PAMPA 11 × 10^-6 cm/s
* CC(C)C[C@@H]1NC(=O)[C@H]2CCCN2C(=O)[C@H](CC(C)C)NC(=O)[C@H](CC(C)C)N(C)C(=O)[C@H](C)N(C)C(=O)[C@H]2CCCN2C(=O)[C@H](Cc2ccccc2)NC1=O: PAMPA 3.3 × 10^-6 cm/s
* CC(C)C[C@@H]1C(=O)N[C@@H](Cc2ccccc2)C(=O)N2CCC[C@@H]2C(=O)N(C)[C@@H](C)C(=O)N[C@H](CC(C)C)C(=O)N[C@H](CC(C)C)C(=O)N2CCC[C@H]2C(=O)N1C: PAMPA 0.23 × 10^-6 cm/s
* CC(C)C[C@@H]1NC(=O)C[C@H](Cc2ccccc2)NC(=O)[C@@H]2CCCN2C(=O)[C@H](Cc2ccccc2)NC(=O)[C@@H](CC(C)C)NC(=O)[C@@H]2CCCN2C(=O)[C@@H](CC(C)C)NC1=O: PAMPA 1.8 × 10^-6 cm/s
* CCCN1CC(=O)N(C)[C@@H](CC(C)C)C(=O)N[C@@H](CC(C)C)C(=O)N2CCC[C@H]2C(=O)N(C)[C@H](CC(C)C)C(=O)N[C@@H](Cc2ccccc2)C(=O)N2CCC[C@H]2C1=O: PAMPA 6.8 × 10^-6 cm/s
* CCCN1CC(=O)N(C)[C@@H](CC(C)C)C(=O)N(C)[C@H](CC(C)C)C(=O)N2CCC[C@@H]2C(=O)N(C)[C@H](CC(C)C)C(=O)N[C@@H](Cc2ccccc2)C1=O: PAMPA 7.4 × 10^-6 cm/s

Extract of 2 entries:

* CC(C)C[C@H]1NC(=O)[C@H](C)N(C)C(=O)[C@H]2CCCN2C(=O)[C@H](Cc2ccccc2)NC(=O)CN(Cc2ccccc2)C(=O)[C@@H]2CCCN2C(=O)[C@H](CC(C)C)N(C)C1=O: PAMPA 2.8 × 10^-6 cm/s
* CC(C)C[C@@H]1NC(=O)[C@H]2CCCN2C(=O)[C@@H](CC(C)C)N(C)C(=O)[C@@H](CC(C)C)N(C)C(=O)[C@H](C)NC(=O)[C@H]2CCCN2C(=O)[C@H](Cc2ccccc2)NC1=O: PAMPA 2.5 × 10^-6 cm/s

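Conditions beyond the assay type are not listed; see the original paper. Other peptides of the study may be missing here. Entries at the database's floor value (log10 P of -10) are not listed.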

Source: CycPeptMPDB (Li et al. 2023), which took these values from Townsend et al. 2020, doi:10.26434/chemrxiv.13335941.v1.